## Yeast mating assay B: variants of the scFv Ab-14

Source: Li et al. 2023 (doi:10.1038/s41467-023-39022-2), MIT Lincoln Laboratory and A-Alpha Bio; data file from the FLAb repository.

Target: peptide PDVDLGDISGINAS, taken from heptad repeat 2 (HR2) of SARS-CoV-2 spike.

Parent: Ab-14, a human scFv built as VH, a 15-residue (Gly4Ser)3 linker, VL. Only the CDRs of the heavy chain vary.
VH: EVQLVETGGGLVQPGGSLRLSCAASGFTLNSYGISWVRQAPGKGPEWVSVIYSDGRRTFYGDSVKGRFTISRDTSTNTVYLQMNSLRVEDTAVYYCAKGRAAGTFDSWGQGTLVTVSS
VL: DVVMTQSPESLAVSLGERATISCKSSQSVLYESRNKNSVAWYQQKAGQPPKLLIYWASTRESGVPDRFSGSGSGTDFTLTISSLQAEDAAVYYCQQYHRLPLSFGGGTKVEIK

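Phage display of a naive human antibody library on the peptide gave the parent. The variants were designed computationally from a first round of random CDR variants and then made and measured. Group labels follow the data file (Ctrl: baseline library sampled from a position-specific scoring matrix, with some repeated check sequences; Rand: our label for a block that the file lists under HC and that is probably the random mutants of the ten best first-round binders; En: ensemble of fine-tuned language models; GP: Gaussian process model; GPLM: also part of the Gaussian process libraries; HC: hill climbing; Gen: genetic algorithm; Gibbs: Gibbs sampling; a sequence that several methods proposed may carry one label only). Affinity was read by AlphaSeq, a pooled yeast mating assay with surface-displayed partners. The frequency of each diploid, read from paired DNA barcodes, reflects how well the two displayed proteins bind. Each replicate has its own calibration line, from reference interactions of the BCL2 family. Mating was done six times.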

Variants are written as CDR1, CDR2 and CDR3 of the heavy chain (limits as in the source). Parent: GFTLNSYGIS, VIYSDGRRTFYGDSVK, GRAAGTFDS.
Numbers give log10(Kd / nM), so 0 is 1 nM and 3 is 1 µM. Smaller is tighter.
A mean of the replicates is given; it leaves out those without a signal.
An entry "nd" has no value in the source: the pair was not observed among the diploids in any replicate. This suggests poor binding but is not conclusive.
Order: sorted from the lowest average up, undetected variants last.

| CDR-H1 | CDR-H2 | CDR-H3 | group | mean log10 Kd (nM) | detected |
|---|---|---|---|---|---|
| GFSLDDYGIS | VIYADGLRKAYVDEVK | GYVAGTFDE | En_Gibbs | -0.83 | 6/6 |
| GFDLNEYGIS | VIYADGRRTFYTDSVK | GNMAGTFDV | En_HC | -0.69 | 6/6 |
| GFDLDEYGIS | VIYADGMRTVYADSVK | GNQAGTFDL | En_Gen | -0.68 | 6/6 |
| GFDLNEYGIS | VIYADGRRTFYIDSVK | GEQAGTFDV | En_HC | -0.67 | 6/6 |
| GFDLNEYGIS | VIYADGQRTYYADSVK | GENAGTFDL | En_Gen | -0.62 | 6/6 |
| GFDLNEYGIS | VIYADGVRTAYADDVK | GQNAGTFDV | En_Gen | -0.61 | 6/6 |
| GFNLEDYGIS | VIYADGRRTFYVDSVK | GKVAGTFDV | En_HC | -0.59 | 6/6 |
| GFDLNEYGIS | VIYADGVRTAYADDVK | GKNAGTFDV | En_Gen | -0.54 | 6/6 |
| GFDLNEYGIS | VIYADGMRTAYVDKVK | GNVAGTFDV | En_Gen | -0.54 | 6/6 |
| GFDLNEYGIS | VIYADGSRTAYADSVK | GNNAGTFDV | En_Gen | -0.48 | 6/6 |
| GFDLNEYGIS | VIYADGKRTAYADNVK | GEVAGTFDI | En_Gen | -0.37 | 6/6 |
| GFDLEEYGIS | VIYADGRRTFYADSVK | GEAAGTFDV | En_HC | -0.36 | 6/6 |
| GFDLNEYGIS | VIYADGVRTFYSDSVK | GENAGTFDI | En_HC | -0.31 | 6/6 |
| GFDLNSYGIS | VIYSDGRRTFYGDEVK | GRTAGTFDS | GP_Gen | -0.25 | 6/6 |
| GFDLNEYGIS | VIYADGVRTAYADKVK | GNQAGTFDV | En_Gen | -0.25 | 6/6 |
| GFDLNEYGIS | VIYADGRRTAYSDSVK | GENAGTFDV | En_Gen | -0.23 | 6/6 |
| GFDLNEYGIS | VIYADGLRTAYADSVK | GNQAGTFDI | En_Gen | -0.20 | 6/6 |
| GFDLESYGIS | VIYADGKRTAYADSVK | GNVAGTFDV | En_HC | -0.18 | 6/6 |
| GFDLNEYGIS | VIYADGQRTAYSDSVK | GQTAGTFDV | En_HC | -0.16 | 6/6 |
| GFTLNEYGIS | VIYSDGRRTFYSDSVK | GRLAGTFDS | GPLM_HC | -0.15 | 6/6 |
| GFDLDEYGIS | VIYADGKRTAYADSVK | GQNAGTFDT | En_Gen | -0.14 | 6/6 |
| GFDLNEYGIS | VIYADGSRTAYADDVK | GENAGTFDM | En_Gen | -0.06 | 6/6 |
| GFSLNEYGIS | VIYSDGRRTFYKDSVK | GRMAGTFDS | GP_HC | -0.04 | 6/6 |
| GFSLNSYGIS | VIYSDGRRTFYSDSVK | GKLAGTFDS | GP_Gen | -0.03 | 6/6 |
| GFDLNEYGIS | VIYADGMRTAYANSVK | GEVAGTFDV | En_Gen | -0.02 | 6/6 |
| GFDLNEYGIS | VIYADGSRTFYADSVK | GNAAGTFDV | En_HC | -0.02 | 6/6 |
| GFNLNEYGIS | VIYADGRRTFYADSVK | GEIAGTFIQ | En_HC | 0.01 | 6/6 |
| GFDLNEYGIS | VIYADGRRTSYKDSVK | GENAGTFDV | En_HC | 0.09 | 6/6 |
| GFNLNEYGIS | VIYADGRRTAYADSVK | GEAAGTFDS | En_HC | 0.11 | 6/6 |
| GFVLNEYGIS | VIYSDGRRTFYADSVK | GRTAGTFDS | GPLM_Gen | 0.12 | 6/6 |
| GFSLNSYGIS | VIYSDGRRTFYADSVK | GRTAGTFDL | GPLM_Gen | 0.22 | 5/6 |
| GFTLESYGIS | VIYADGRRTFYGDSVK | GRVAGTFDS | GPLM_Gen | 0.22 | 5/6 |
| GFNLNSYGIS | VIYSDGRRTFYKDSVK | GQTAGTFDS | GPLM_Gen | 0.29 | 6/6 |
| GFSLNSYGIS | VIYSDGRRTFYIDSVK | GTQAGTFDS | GPLM_Gibbs | 0.36 | 6/6 |
| GFDLNEYGIS | VIYADGKRTFYADSVK | GQAAGTFTL | En_HC | 0.44 | 6/6 |
| GFDLNEYGIS | VIYADGRRTAYSDSVK | GTAGGTFDM | En_HC | 0.54 | 6/6 |
| GFELNSYGIS | VIYSDGRRTFYGDNVK | GRNAGTFDS | GP_Gen | 0.60 | 6/6 |
| GFGLNEYGIS | VIYSDGRRTFYHDSVK | GQAAGTFDS | GP_Gen | 0.62 | 6/6 |
| GFTLDSYGIS | VIYSDGRRTFYGDSVK | GRWAGTFDS | Ctrl+GP_HC | 0.81 | 6/12 |
| GFNLDEYGIS | VIYADGRRTFYADSVK | GEHAGTFDV | En_HC | 0.96 | 2/6 |
| GFTLNSYGIS | VIYSDGKRTFYSDRVK | GKAAGTFDT | GP_Gibbs | 1.08 | 6/6 |
| HFTLNSYGIS | VIYSDGRRTFYSDSVK | GEAGGTFDS | GP_HC | 1.14 | 3/6 |
| GFNLNSYGIS | VIYSDGRRTFYADSVK | GHAAGTFDT | GP_Gibbs | 1.21 | 6/6 |
| GFTLNSYGIS | VIYSDGRRTFYGDSVK | GRAPGTFDS | Ctrl | 1.41 | 6/6 |
| GFDLEDYGIS | VIYADGMRTAYADSVK | GNNAGTFDV | En_Gen | 1.50 | 4/6 |
| GFDLNSYGIS | VIYSDGRRTFYGDSVK | GRAAGTFNV | GPLM_HC | 1.53 | 4/6 |
| GETLNDYGIS | VIYSDGRRTFYGDSVK | GRAAGTFDT | Ctrl | 1.98 | 5/6 |
| GFTLNSYGIS | VIYSDGRRTFYIDSVK | GQTAGTFDS | GPLM_Gen | 1.99 | 4/6 |
| GFTLNSYGIS | VIYSDGRRTFYGDSVK | GRAAGTFTS | Ctrl | 2.02 | 3/6 |
| PFSLNSYGIS | VIYSDGRRTFYSDSVK | GRTAGTFDS | GP_Gibbs | 2.33 | 6/6 |
| GFTLNSYGIS | VIYSDGKRTFYGDSVK | GQAAGTFDN | GP_Gibbs | 2.33 | 2/6 |
| GFTLDFYGIS | VIYSDGRRTFYGDSVK | GRAAGTALS | Rand | 2.35 | 2/6 |
| GFWLNMYGIS | VIYSDGRRTFYGDSVK | GRAAGTFDS | Ctrl | 2.41 | 2/6 |
| GFDLNSYGIS | VIYSDGRRTFYSDSVK | GVAGGTFDS | GP_HC | 2.57 | 4/6 |
| GFTLNEYGIS | VIYSDGRRTFYGDSVK | WSAAGTFDS | Ctrl | 2.92 | 2/6 |
| GADLNEYGIS | VIYADGSRTVYADTVK | GKHGGIFDS | En_Gibbs | 3.12 | 1/6 |
| GFDLQEYGIS | VIYADGMRVGYTDSVK | GTQGISNIE | En_Gibbs | nd | 0/6 |
| KFTLNSYGIS | VIYSDGLRQFYGDSVK | GREAGTFDS | Ctrl | nd | 0/6 |
| GFTLNSYGIS | VIYSDGRRTWYIDSVK | GQAAGTFDS | GPLM_HC | nd | 0/6 |
| GFDLNSYGIS | VIYSDGRRTFYGDSVK | GRAAGHFHS | GPLM_HC | nd | 0/6 |
| GKSLDEYGIS | VIYADGSREAYTESFK | GQLAAGFML | En_Gibbs | nd | 0/6 |
| GFTLNSYGIS | VIYSDGRRTFYSDSVK | GRAAVTFDM | GP_HC | nd | 0/6 |
| GFNLNSYGIS | VIYADGRRTFYGDSVK | GRAAGTNDS | GPLM_HC | nd | 0/6 |
| GFNLMEYGIS | VIYADGTRTAYAGTVK | GKYVDTFVD | En_Gibbs | nd | 0/6 |
| GKNIDEYGVS | VIYADGKRTAYANNFK | GSNAGSFKS | En_Gibbs | nd | 0/6 |
| GFDLNSYGIS | VIYSDGRRTFYGDSVK | GHAAGTFDW | GP_Gibbs | nd | 0/6 |
| GFTLNSYGIS | VIYSDGYRTFYDDSVK | GKAAGTFWS | Ctrl | nd | 0/6 |
| FQLLEDYGIS | VIYADGKRQAYVNSVK | GEHAGTFDI | En_Gibbs | nd | 0/6 |
| GFDLNSYGIS | VIYSDGRRTFYGDAVK | GKIAGTFDS | GP_Gen | nd | 0/6 |
| GFSLNEYGIS | VIYSDGRRTFYGDHVK | GRTAGTFDD | GP_Gibbs | nd | 0/6 |
| GFDINEYGIS | VIYADGSRTAYSKNFK | GEDGIMLLF | En_Gibbs | nd | 0/6 |
| GFTLNSYGIS | VIYSDGRRTFYDDSVK | GQSIGTFDS | Ctrl | nd | 0/6 |
| GFWLNSYGIS | VIYSDGRRTFYQDSYK | GRNALTFDS | Ctrl | nd | 0/6 |
| GFTLNEYGIS | VIYSDGRRTVYGDSVK | GRAAVTKDQ | Rand | nd | 0/6 |
| GFDINEYGVS | VIYADGMRTAYTDSVK | GEGQWINLI | En_Gibbs | nd | 0/6 |
| GFDIQDYGIS | VIYADGSRTAYVNSVK | GEQGATLDL | En_Gibbs | nd | 0/6 |
| GFTLNETGIS | VIYSDGRRTFYTDSVK | GRFAGTFDN | Rand | nd | 0/6 |

The first 8 entries again:

| CDR-H1 | CDR-H2 | CDR-H3 | group | mean log10 Kd (nM) | detected |
|---|---|---|---|---|---|
| GFSLDDYGIS | VIYADGLRKAYVDEVK | GYVAGTFDE | En_Gibbs | -0.83 | 6/6 |
| GFDLNEYGIS | VIYADGRRTFYTDSVK | GNMAGTFDV | En_HC | -0.69 | 6/6 |
| GFDLDEYGIS | VIYADGMRTVYADSVK | GNQAGTFDL | En_Gen | -0.68 | 6/6 |
| GFDLNEYGIS | VIYADGRRTFYIDSVK | GEQAGTFDV | En_HC | -0.67 | 6/6 |
| GFDLNEYGIS | VIYADGQRTYYADSVK | GENAGTFDL | En_Gen | -0.62 | 6/6 |
| GFDLNEYGIS | VIYADGVRTAYADDVK | GQNAGTFDV | En_Gen | -0.61 | 6/6 |
| GFNLEDYGIS | VIYADGRRTFYVDSVK | GKVAGTFDV | En_HC | -0.59 | 6/6 |
| GFDLNEYGIS | VIYADGVRTAYADDVK | GKNAGTFDV | En_Gen | -0.54 | 6/6 |

Of ten entries with the parent sequence, four were seen in most replicates (averages 0.34 to 2.37), three in one and three in none, so single entries are noisy.
Nonspecific signal, from three strains lacking the peptide, appeared in 1% of pairings of all heavy chain designs, centred on 2.08 (5% of these signals below 0.84); values are not corrected for it.
The range of this assay differs from that of the first round, and the authors advise against merging the two.
The authors averaged sequences with at least three values out of six and counted those with two or fewer as poor binders.
Some sequences occur more than once in the pool; their replicates are pooled.